From patent US7070788

What was measured:
[1] = molecular target: porcine TSH receptor (solubilized porcine thyroid membranes) (porcine) (UniProt Q8SPP9); assay: competitive displacement of 125I-bTSH from solubilized porcine thyroid membranes
[2] = molecular target: human TSH receptor (CHO-JP09 cells) (human) (UniProt P16473); assay: cell-based or functional assay

Substance: bovine thyroid stimulating hormone (from UniProt P01217 25-120; P01223 21-132) (ligand)
- EC25 of inhibition of 125I-bTSH binding [1]: 7.9 ng/mL
- cAMP stimulation in JP09 cells, EC50 [2]: 0.71 ng/mL
- cAMP stimulation in JP09 cells, Relative potency (WT = 1) (fold (WT = 1)) [2]: 9.4
